Assay results taken from patent US20250332141A1, “A PHARMACEUTICAL COMPOSITION COMPRISING AN INHIBITOR OF GLUTAMINE SYNTHETASE ENZYME TO COMBAT ARTEMISININ RESISTANCE IN MALARIA” (Institute of Life Sciences, priority 2022, published 2025).

Experiments:
[1] = target: T1, rPfGS (Plasmodium falciparum glutamine synthetase) (Plasmodium falciparum, UniProt C0H551); assay: Recombinant PfGS enzyme assay (HPLC glutamine formation / Pi release) and inhibition; format: biochemical
T1 sequence (C0H551 1-543): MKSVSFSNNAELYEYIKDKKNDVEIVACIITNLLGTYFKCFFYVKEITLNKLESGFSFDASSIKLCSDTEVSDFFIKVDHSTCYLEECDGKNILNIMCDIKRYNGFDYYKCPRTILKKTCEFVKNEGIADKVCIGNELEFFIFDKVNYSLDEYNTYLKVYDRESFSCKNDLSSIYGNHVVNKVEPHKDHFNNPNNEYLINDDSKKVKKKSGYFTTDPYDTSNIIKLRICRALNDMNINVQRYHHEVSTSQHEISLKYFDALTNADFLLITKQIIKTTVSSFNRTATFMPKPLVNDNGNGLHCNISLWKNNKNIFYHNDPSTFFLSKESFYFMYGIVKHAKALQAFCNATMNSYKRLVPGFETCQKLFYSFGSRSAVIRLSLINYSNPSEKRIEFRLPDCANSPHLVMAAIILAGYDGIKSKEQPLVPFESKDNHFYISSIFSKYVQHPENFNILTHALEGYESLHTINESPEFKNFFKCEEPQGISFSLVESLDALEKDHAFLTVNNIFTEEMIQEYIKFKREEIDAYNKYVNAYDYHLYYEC

[2] = tested on: Pf asexual stages (Pf3D7 cultures); assay: MSO and PPT inhibition of in vitro growth of Pf cultures; format: cell-based, Plasmodium falciparum; conditions: RPMI medium containing physiological levels (0.5 mM) of glutamine (RPMI^Pgln)
Description: The parasites were subcultured with fresh RBCs when the culture parasitemia reached around 2-5%. […] The isolated parasites were washed thoroughly with ice cold PBS for four times to remove the carry-over of proteins from RBC lysates. ART-resistant PfCam3.I^R539T strain was also maintained in a similar fashion. Giemsa-stained smears were routinely prepared to examine the parasite growth and parasitemia. Parasite growth assessment for experiments was carried out by Giemsa-stained smears, flow cytometry and ^3H-hypoxanthine uptake. […] The radioactive counts were measured using MicroBeta^2 Microplate Counters (PerkinElmer).

CS(=N)(=O)CC[C@H](N)C(=O)O (stereo partly drawn) [MSO, L-methionine sulfoximine]
Ki [1]: 5.64 ± 0.39 µM | IC50 in RPMI^Pgln relative to IC50 in RPMI^-gln [2]: ~10 times higher
